The values that follow are results of earlier work, collected in paper PMC11520371, “Abnormally high plasma concentrations of M-4, the active metabolite of edoxaban, at the onset of acute kidney injury in a patient receiving rifampin and clarithromycin: a case report” (Journal of Pharmaceutical Health Care and Sciences, 2024).

As usually defined, the IC50 is the concentration at which inhibition is half-maximal.

The subject of the series is factor Xa. More on the design: method as in PMID 26620048. Conditions: cited from earlier work.

Take `CN1CCc2nc(C(=O)N[C@@H]3C[C@@H](C(=O)N(C)C)CC[C@@H]3NC(=O)C(=O)Nc3ccc(Cl)cn3)sc2C1` [edoxaban]: the “anti-factor Xa activity IC50” value was 1.64 ng/mL. Moreover, for the setting “read-out: anti-factor Xa activity IC50”, the IC50 was 3 nM.
